UUG fidelity: alters start codon recognition fidelity in yeast; S. cerevisiae UUG-firefly luciferase reporter, luminescence/redox ratio; activity score, % at 18.7 µM; actives 0.13% (n = 350,000); AID 602363;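 active = replicate mean at a twofold rise or more, about +100% in these data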;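 also: firefly luciferase made from a UUG start codon reports start codon fidelity; reporter light over untreated wells divided by growth signal over untreated wells; some hits fall short of that in this replicate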
RAD54 branch: inhibitors of human RAD54 branch migration, primary screen, biochemical, fluorescence, single point | RAD54 Holliday junction branch migration, FAM/BHQ fluorescence | inhibition, % at 10.4 µM | hit rate 0.14% among 360,000 | AID 602329, 2012;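 active means mean normalized replicate activity at least 40 and at least half of replicates scoring 40 or more; inconclusive means only one of the two criteria met; inactive means mean below 40 and under half of replicates reaching 40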;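 further: inhibitors cause a drop in the FAM fluorescence signal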
SIRT5 block: SIRT5 desuccinylase inhibitors, primary screen, biochemical, fluorescence imaging, single point, set 5 | AID 652115, 2013 | hit rate 1.1% among 330,000 | inhibition, % at 15 µM | Purified SirT5, succinyl-peptide AMC, trypsin-coupled fluorescence; in the data active means inhibition above about 15%; inconclusive means no clear call, values can overlap the other calls
E-selectin induc: E-selectin induction in HUVECs, primary screen, imaging, HUVEC, immunofluorescence imaging, single point; AID 686992, 2013; normalized: neutral wells 0, TNF-alpha wells 100; P16581; hit rate 0.37% among 260,000; activation, % at 7.58 µM;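 active means mean E-selectin-positive cell signal at least 10% of the positive control, reached in at least 60% of replicates, without over 20% cell loss; inconclusive means no rule given, readout overlaps actives, possibly toxicity-flagged; inactive means the rest, including those meeting only one limit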
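Assay system: HUVEC primary endothelial cells. Input: 3,000 HUVEC seeded per well. Doses: one compound dose added by pin transfer. Read-out basis: % PE-positive cells. Benchmarks: TNF-alpha high, DMSO low. Detection: immunofluorescence imaging. Buffer or medium: EGM-2, gelatin.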
MLL AF4-AF9 inh: inhibitors of AF4 peptide binding to AF9, primary screen, biochemical, AlphaScreen, biotin-AF4 peptide, FLAG-AF9, single point | inhibition, % at 10 µM | Protein AF-9 (Homo sapiens), P42568 | hit rate 0.47% among 350,000;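 active means every replicate reaching a set inhibition limit, whatever the replicate mean, cut at about 25% in these data; inconclusive means mean inhibition reaches that limit but some replicates miss it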
RAD52 inh: RAD52 DNA annealing inhibitors, primary screen, biochemical, FRET, single point, set 2 | recombinant RAD52 DNA annealing, FRET fluorescence | inhibition, % at 18.7 µM | hit rate 0.46% among 360,000 | AID 651710, 2012;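 active means every replicate showing at least 50% inhibition; inconclusive means mean inhibition at least 50% but not in every replicate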
Hits are given with their value; – = inactive; ? = inconclusive; · = no result. Only some compounds are listed: those with a hit (about 1.8% of all), similar ones and a draw of the others.

Chains of the proteins cited; added tags and fusions are not shown.
Protein AF-9 (Homo sapiens), P42568, UniProt P42568, whole entry, looked up: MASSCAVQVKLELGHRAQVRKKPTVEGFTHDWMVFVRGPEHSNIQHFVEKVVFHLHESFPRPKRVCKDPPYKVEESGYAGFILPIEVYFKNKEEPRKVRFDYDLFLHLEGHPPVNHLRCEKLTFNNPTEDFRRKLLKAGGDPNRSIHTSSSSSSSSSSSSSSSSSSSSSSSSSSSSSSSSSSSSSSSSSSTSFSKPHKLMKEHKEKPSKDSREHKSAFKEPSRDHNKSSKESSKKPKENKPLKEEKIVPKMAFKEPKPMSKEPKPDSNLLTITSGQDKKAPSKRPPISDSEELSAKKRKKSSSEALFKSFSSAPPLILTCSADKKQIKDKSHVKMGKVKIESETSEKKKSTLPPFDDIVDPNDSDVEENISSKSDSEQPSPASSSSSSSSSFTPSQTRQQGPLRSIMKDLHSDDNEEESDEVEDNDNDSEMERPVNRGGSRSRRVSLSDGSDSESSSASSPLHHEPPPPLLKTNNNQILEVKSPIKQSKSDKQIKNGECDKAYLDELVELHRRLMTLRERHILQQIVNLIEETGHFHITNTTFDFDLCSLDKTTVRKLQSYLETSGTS

SMILES	UUG fidelity	RAD54 branch	SIRT5 block	E-selectin induc	MLL AF4-AF9 inh	RAD52 inh
C[C@H]1CN([C@@H](C)CO)C(=O)c2c(c3ccccc3n2C)-c2ccccc2CO[C@H]1CN(C)C(=O)Nc1ccccc1	–	–	–	–	–	–
COc1cccc(S(=O)(=O)Nc2ccc3c(c2)[C@@H]2C[C@@H](CC(=O)NCCc4ccccc4)O[C@@H](CO)[C@@H]2O3)c1	·	–	–	–	–	–
C[C@H]1CN([C@@H](C)CO)S(=O)(=O)c2ccc(-c3cccc(F)c3)cc2O[C@@H]1CN(C)S(=O)(=O)c1ccc(F)cc1	–	–	18	–	–	–
COc1ccc(S(=O)(=O)N(C)C[C@@H]2Oc3cc(-c4cccc(F)c4)ccc3S(=O)(=O)N([C@@H](C)CO)C[C@@H]2C)cc1	–	–	–	–	–	–
C[C@@H]1CN([C@H](C)CO)S(=O)(=O)c2ccc(-c3cccc(F)c3)cc2O[C@@H]1CN(C)S(=O)(=O)c1ccc(F)cc1	–	–	20	–	–	–
C[C@@H](NC(=O)C[C@@H]1C[C@H]2c3cc(NC(=O)c4ccc5c(c4)OCO5)ccc3O[C@H]2[C@@H](CO)O1)c1ccccc1	·	·	·	–	·	·
O=C(c1ccc(F)cc1)N1CC(=O)N2[C@H](CO)[C@@H](c3ccc(C#Cc4ccc(F)cc4)cc3)[C@@H]2C1	·	·	–	–	–	–
COc1ccc(S(=O)(=O)N(C)C[C@@H]2Oc3ccc(NC(=O)c4ccncc4)cc3C(=O)N([C@H](C)CO)C[C@@H]2C)cc1	–	–	–	–	–	–
COc1ccc(S(=O)(=O)N(C)C[C@H]2Oc3ccc(NC(=O)c4ccncc4)cc3C(=O)N([C@H](C)CO)C[C@H]2C)cc1	–	–	–	28	–	–
COc1ccc(S(=O)(=O)N(C)C[C@H]2Oc3ccc(NC(=O)c4ccncc4)cc3C(=O)N([C@@H](C)CO)C[C@@H]2C)cc1	–	–	–	47	–	–
CCCC#Cc1cnc2c(c1)C(=O)N([C@@H](C)CO)C[C@@H](C)[C@@H](CN(C)C(=O)NC1CCCC1)O2	–	–	–	–	–	–
O=C(Nc1ccc(F)cc1)N[C@@H]1CC[C@@H](CCn2cc(C3(O)CCCC3)nn2)O[C@H]1CO	–	–	–	–	–	–
CC(C)NC(=O)N[C@H]1CC[C@H](CCNC(=O)C2CCCC2)O[C@@H]1CO	–	–	25	–	·	–
COCc1cn(CC[C@H]2CC[C@H](NC(=O)Nc3ccc(OC)cc3)[C@H](CO)O2)nn1	216	–	–	–	–	–
CC(C)NC(=O)N[C@@H]1CC[C@H](CCNC(=O)C2CCCC2)O[C@H]1CO	–	–	·	–	–	·
CCCc1cn(CC[C@H]2CC[C@H](NC(=O)C3CCCCC3)[C@@H](CO)O2)nn1	–	–	–	–	–	–
CCCc1cn(CC[C@@H]2CC[C@H](NC(=O)C3CCCCC3)[C@@H](CO)O2)nn1	–	–	16	–	–	–
O=C(Nc1ccc(C(F)(F)F)cc1)N[C@@H]1CC[C@H](CCn2cc(C3(O)CCCC3)nn2)O[C@@H]1CO	–	–	18	–	–	–
CN1[C@@H]2c3ccc(/C=C/c4ccccc4)c(=O)n3C[C@@H]2[C@@H](CO)[C@@H]1C(=O)NC1CCCC1	·	·	–	–	–	–
CCCNC(=O)C[C@H]1CC[C@H]2[C@@H](COc3ccc(NC(=O)C4CCOCC4)cc3C(=O)N2C)O1	·	·	–	–	–	–
Cc1ccc(S(=O)(=O)N[C@@H]2C=C[C@H](CC(=O)NCc3ccncn3)O[C@@H]2CO)cc1	–	–	–	–	–	–
C[C@@H]1CN([C@H](C)CO)C(=O)c2cc(-c3cncnc3)cnc2O[C@@H]1CN(C)C(=O)c1ccccc1F	–	–	–	?	–	–
C[C@H](CO)N1C[C@H](C)[C@@H](CN(C)C(=O)Nc2ccc3c(c2)OCO3)OCCCC[C@H](C)Oc2ccc(NC(=O)c3ccncc3)cc2C1=O	–	–	–	–	–	–
C[C@H]1CN([C@@H](C)CO)C(=O)c2cc(C#CC3CCCCC3)cnc2O[C@@H]1CN(C)C(=O)c1ccncc1	–	–	–	–	–	–
CN(C)Cc1cn(CC[C@H]2CC[C@@H](NC(=O)Nc3ccccc3F)[C@@H](CO)O2)nn1	–	–	18	–	–	–
SMILES	UUG fidelity	RAD54 branch	SIRT5 block	E-selectin induc	MLL AF4-AF9 inh	RAD52 inh
C[C@H]1CN([C@@H](C)CO)C(=O)c2cc(C#Cc3cccc(F)c3)cnc2O[C@H]1CN(C)C(=O)C1CCC1	–	–	–	–	–	–
C[C@@H]1CN([C@@H](C)CO)C(=O)c2cc(C#C[C@@H](C)O)cnc2O[C@H]1CN(C)CC1CCCC1	–	–	–	–	–	–
C[C@H]1CN([C@@H](C)CO)C(=O)c2cc(C#Cc3cccc(F)c3)cnc2O[C@@H]1CN(C)CC1CCCC1	–	–	23	·	–	–
C[C@@H]1CN([C@H](C)CO)C(=O)c2cc(C#Cc3cccc(F)c3)cnc2O[C@H]1CN(C)CC1CCCC1	–	–	–	–	–	–
C[C@@H]1CN([C@H](C)CO)C(=O)c2cc(C#Cc3cccc(F)c3)cnc2O[C@H]1CN(C)C(=O)C1CCC1	–	–	–	67	–	–
C[C@H](CO)N1C[C@H](C)[C@H](CN(C)Cc2cccc(F)c2)Oc2ncc(C#C[C@@H](C)O)cc2C1=O	–	–	24	–	–	–
C[C@H](O)C#Cc1cnc2c(c1)C(=O)N([C@H](C)CO)C[C@H](C)[C@@H](CN(C)CC1CCCC1)O2	–	–	21	–	–	–
C[C@@H]1CN([C@@H](C)CO)C(=O)Cc2cc(NC(=O)Nc3ccc4c(c3)OCO4)ccc2O[C@H]1CN(C)CC1CCCCC1	–	–	–	–	27	–
C[C@@H]1CN([C@@H](C)CO)C(=O)c2cc(NC(=O)Nc3ccc4c(c3)OCO4)ccc2O[C@@H]1CN(C)CC1CCCCC1	–	–	–	–	–	–
C[C@H](CO)N1C[C@H](C)[C@H](CN(C)C(=O)Nc2ccc3c(c2)OCO3)Oc2ccc(NC(=O)NC3CCCCC3)cc2CC1=O	–	–	–	–	–	–
C[C@@H]1CN([C@H](C)CO)C(=O)Cc2cc(NC(=O)Nc3ccc4c(c3)OCO4)ccc2O[C@@H]1CN(C)CC1CCCCC1	–	–	–	–	–	–

Compound activity (PubChem BioAssay)
